Consider 1 substance from publication PMC11400633, “Peptides inhibiting the assembly of monomeric human L‐lactate dehydrogenase into catalytically active homotetramer decrease the synthesis of lactate in cultured cells” (Protein Science : A Publication of the Protein Society, 2024).

Read-outs that look alike come from different tables or passages of the source.

One assay addresses T1, tetrameric LDH‐A (Homo sapiens, UniProt P00338).
T1 construct: made in house; host or cells: E. coli BL21(DE3), pET9a (NdeI/BamHI)
The assay is described as follows: SPR binding of β-NADH to immobilized tetrameric hLDH-A. The conditions noted are these: 50 mM HEPES pH 7.5, 25°C. The protocol:
(§1) To further inspect the biochemical features of monomeric LDH‐A, we analyzed the binding of β‐NADH to LDH‐A (at pH 7.5) by Surface Plasmon Resonance (SPR). First, we tested the association between the tetrameric enzyme and the redox cofactor. […] However, by decreasing to 7.0 the pH of the binding assay, the observed amplitude was more than twice the corresponding response at pH 7.5 (Figure S4). […] However, it should be considered that the DLS experiments were carried out with free LDH‐A monomers, whereas the SPR assays were performed with immobilized enzyme which therefore is incapable to assemble into the tetrameric form. Accordingly, we propose that the binding of β‐NADH and the assembly of monomers represent a concerted action, the occurrence of which is hampered by the immobilization of LDH‐A.
FIGURE 4 Binding of β‐NADH to tetrameric and monomeric hLDH‐A. (a) Kinetics of the association of β‐NADH to tetrameric hLDH‐A as detected by surface plasmon resonance. Sensorgrams were observed loading increasing concentration of β‐NADH (0.49–125 μM) on a sensor chip modified with immobilized tetrameric human LDH‐A. (b) Determination of the K D of hLDH‐A for β‐NADH. The response units refer to the data shown in “a.” The continuous lines represent the best fit of a parametric rectangular hyperbola to the experimental observations. (c) Sensorgrams observed loading increasing concentration of β‐NADH (0.25–10 mM) on a sensor chip modified with immobilized monomeric human LDH‐A. (d) Linear dependence of the response units reported in “c” on the concentration of loaded β‐NADH. The continuous line represents the best fit of a linear equation to the experimental observations.
The binding of β‐NADH by monomeric and tetrameric hLDH‐A was assayed using a Biacore T200 instrument (Cytiva, Marlborough, MA). Both monomeric and tetrameric LDH‐A were immobilized on a Xantec CMD500 chip at a concentration of 30 μg/ml in 10 mM HEPES, pH 7 using a standard amine coupling protocol, yielding an observed immobilization level of 6984 and 17,424 response units (Rus), respectively. The binding of β‐NADH to hLDH‐A was tested in 50 mM HEPES, pH 7.5, at 25°C, using a flow rate of 50 μl/min, with 60 and 10 s of association and dissociation time, respectively. The elaboration of sensorgrams was achieved using the BIAevaluation software.
In general terms: In SPR one partner is held on a chip, and binding of the other changes the refractive index at the surface.

The target of the next assay is T2, monomeric hLDH‐A (Homo sapiens, UniProt P00338).
T2 construct: made in house; host or cells: E. coli BL21(DE3), pET9a (NdeI/BamHI)
Kind of assay: SPR binding of β-NADH to immobilized monomeric hLDH-A. As to conditions: pH 7.0, linear dependence of response up to 10 mM β-NADH. The protocol:
as §1
FIGURE 4 Binding of β‐NADH to tetrameric and monomeric hLDH‐A. (a) Kinetics of the association of β‐NADH to tetrameric hLDH‐A as detected by surface plasmon resonance. Sensorgrams were observed loading increasing concentration of β‐NADH (0.49–125 μM) on a sensor chip modified with immobilized tetrameric human LDH‐A. (b) Determination of the K D of hLDH‐A for β‐NADH. The response units refer to the data shown in “a.” The continuous lines represent the best fit of a parametric rectangular hyperbola to the experimental observations. […]

On to β‐NADH, for which the Kd at tetrameric LDH‐A (independent assay 1 of 3, read-out: K D of the enzyme–cofactor complex) was determined as 28 µM; on tetrameric LDH‐A (independent assay 2 of 3, read-out: K D of the enzyme–cofactor complex), 22 µM; on tetrameric LDH‐A (independent assay 3 of 3, read-out: K D of the enzyme–cofactor complex) it was 21 µM; at tetrameric LDH‐A (mean of three independent assays, read-out: K D of the enzyme–cofactor complex, mean value), 23 ± 4 µM. For the same substance, at monomeric hLDH‐A, the “K D for the monomer‐coenzyme binary complex” value is listed as “cannot be determined”.
